Measured values from patent US10450297B2, “Sulfonyl amide derivatives for the treatment of abnormal cell growth” (Pfizer, Inc., priority 2007, dated 2019).

Amino acid sequences for entries named in this document (tags omitted). Residues count along the entry.
UniProt Q05397, 410-689: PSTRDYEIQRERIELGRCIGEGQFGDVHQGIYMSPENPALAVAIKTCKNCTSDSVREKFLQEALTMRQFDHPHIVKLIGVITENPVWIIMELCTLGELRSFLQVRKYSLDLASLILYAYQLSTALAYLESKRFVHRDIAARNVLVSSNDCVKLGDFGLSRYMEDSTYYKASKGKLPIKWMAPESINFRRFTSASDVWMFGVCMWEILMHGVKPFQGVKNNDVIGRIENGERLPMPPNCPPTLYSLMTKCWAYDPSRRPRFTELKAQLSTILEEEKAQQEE

Target: FAK kinase (catalytic construct FAK(410-689)) (Homo sapiens (Human), UniProt Q05397)
Assay: FAKcd kinase ELISA (inhibition of poly-glu-tyr phosphorylation by FAK(410-689))
Type: biochemical
Settings: 50 μM final ATP
Experimental: A. In-Vitro Activity of FAK:
The assay protocol has three parts:
3. […] 4. […] 5. […] 6. […] 7. […] 9. […] 10. […] 12. […] 13. […] 14. Aliquot the FAKcd protein and store frozen at −80° C. II. FAK Activation 1. […] At t120 (t=120 minutes), add 10 μl of 150 mM ATP. […] Add 180 μl aliquots of the desalted material to NiNTA spin column and incubate on spin column 4. […] FAKcd Kinase ELISA 1. Coat 96-well Nunc MaxiSorp plates with poly-glu-tyr (pGT) at […]: Prepare 10 μg/ml of pGT in PBS and aliquot 100 μl/well. Incubate the plates at 37° C. overnight, aspirate the supernatant, wash the plates 3 times with Wash Buffer, and flick to dry before storing at 4° C. 2. Prepare compound stock solutions of 2.5 mM in 100% DMSO. The stocks are subsequently diluted to 60× of the final concentration in 100% DMSO, and diluted 1:5 in Kinase Phosphorylation Buffer. 3. […] Add 80 μl to each well for a final ATP concentration of 50 μM. 4. […] Note: Linearity and the appropriate dilution must be pre-determined for each batch of protein. The enzyme concentration selected should be such that quantitation of the assay signal will be approximately 0.8-1.0 at OD450, and in the linear range of the reaction rate. […] The signal is quantitated by measurement of absorbance at 450 nm on the BioRad ricroplate reader or a microplate reader capable of reading at OD450. […] Inhibition of tyrosine kinase activity would result in a reduced absorbance signal. […]

CN(c1ncccc1CNc1nc(Nc2cccc(C(=O)NC3CCCCC3)c2)ncc1C(F)(F)F)S(C)(=O)=O [Compound 187, N-cyclohexyl-3-({4-[({2-[methyl(methylsulfonyl)amino]pyridin-3-yl}methyl)amino]-5-(trifluoromethyl)pyrimidin-2-yl}amino)benzamide]
IC50: 5.84 nM
